Data: PubChem BioAssay AID1850 (Southern Research Specialized Biocontainment Screening …, 2009)
Only a part is listed here, and it is no random draw. Potency and affinity values are given separately. Active and inactive are the calls of the source. How the calls were made is not given here.

test: PhoP regulon inhibitors, Salmonella typhi PhoP promoter GFP reporter, confirmatory (AID 1850); details: fluorescence, 4 h, at 50 µM, active compounds read high;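 further: 0% = induced wells with vehicle and 100% = uninduced wells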

Compound | inhibition
O=C(NC(Sc1ccncn1)C(Cl)(Cl)Cl)c1ccccc1 (centres undefined) | inactive: 2.31%
Cc1c2non([O-])c-2c(C)[n+](=O)[n+]1[O-] | inactive: 4.65%
Oc1ccccc1CNc1ccccn1 | inactive: -2.68%
Nc1cc(N)c2nonc2c1[N+](=O)[O-] | inactive: -7.21%
CC(C)CC(=O)NC(Sc1ccc(Cl)cc1)C(Cl)(Cl)Cl (centres undefined) | inactive: -4.35%
CN1CCCC(OC(=O)C(c2ccccc2)c2ccccc2)C1 (centres undefined) | inactive: 5.23%
Clc1ccc(Cl)c(NC2=NCC(CBr)S2)c1 (centres undefined) | inactive: 10.4%
Cc1ccc(OP(=O)(Nc2nccs2)Oc2ccc(C)cc2)cc1 | inactive: -0.18%
COc1ccccc1OP(=O)(Nc1ccc(C)cn1)Oc1ccccc1OC | inactive: 6.83%
Cc1ccc(N/C(=N/P(=O)(N2CCOCC2)N2CCOCC2)N2CCOCC2)cc1 | inactive: 2.97%
CN(C(=O)Cc1ccc(Cl)c(Cl)c1)[C@H]1CCCC[C@H]1N1CCCC1 | inactive: -22.3%
NC(=O)c1cc([N+](=O)[O-])cc([N+](=O)[O-])c1N | inactive: -27.4%
Nc1cccc2ccc([As](=O)(O)O)cc12 | inactive: -12.4%
CCN(N=Nc1nonc1N)c1nonc1N | inactive: -6.72%
O=[N+]([O-])c1cc([N+](=O)[O-])c(CCN2CCOCC2)c([N+](=O)[O-])c1 | inactive: 10.7%
CN(C(=O)Cc1ccc(Cl)c(Cl)c1)[C@H]1CCCC[C@@H]1N1CCCC1 | inactive: -5.96%
Cc1ccc(NP(=O)(Oc2ccccc2F)Oc2ccccc2F)nc1 | inactive: 1.61%
Cc1cc(SC(NC(=O)c2ccc(F)cc2)C(Cl)(Cl)Cl)ncn1 (centres undefined) | inactive: -1.21%
CCOP(=O)(Nc1ccccc1)OCC | inactive: 11%
O=P(Nc1nc2ccc(Cl)cc2s1)(c1ccccc1)c1ccccc1 | inactive: -9.19%
CC(=O)Nc1ccc([As](=O)(O)O)cc1 | inactive: -3.33%
O=C(O)CNc1ccc([As](=O)(O)O)cc1 | inactive: 7.36%

Compound | inhibition
O=[N+]([O-])c1cccc(NC2=NCC(CBr)S2)c1 (centres undefined) | inactive: -0.3%
O=[N+]([O-])c1ncn(CCn2ncnc2[N+](=O)[O-])n1 | inactive: 3.03%
CC(C)(C)C(=O)NC(Sc1ccncn1)C(Cl)(Cl)Cl (centres undefined) | inactive: 10.9%
O=C(Nc1cc([As](=O)(O)O)ccc1O)c1ccccc1 | inactive: -13%
CC1CCN(C(=O)Oc2c(Cl)cc(Cl)c3cccnc23)CC1 | inactive: -3.62%
CN(C)C(=O)OCCc1n(C)cc[n+]1C | inactive: -5.86%
CC(C)=N/N=C(\N)N[N+](=O)[O-] | inactive: 3.58%
CCN(/C(=N/P(=O)(N1CCOCC1)N1CCOCC1)N1CCOCC1)c1ccc(OC)cc1 | inactive: -5.91%
C[N+]1=C2C=CC=CC=C2SC12C([N+](=O)[O-])=CC([N+](=O)[O-])=C[C-]2[N+](=O)[O-] (centres undefined) | inactive: 9.94%
Nc1ccc([As](=O)(O)c2ccc(N)cc2)cc1 | inactive: 9.82%
O=[N+]([O-])c1cc([N+](=O)[O-])c(CCNc2ccccc2)c([N+](=O)[O-])c1 | inactive: 1.03%
CCc1nc2c(n1)c1c(non1O)c1c2no[n+]1[O-] | inactive: -2.16%
Cc1ccc(NP(=O)(Oc2ccccc2)Oc2ccccc2)nc1 | inactive: -1.38%
CC(=O)N1C2C3N(C(C)=O)C1C1N(C(C)=O)C(C(N1C(C)=O)N3C(C)=O)N2C(C)=O | inactive: -3.36%
O=[N+]([O-])c1cccc2n[nH]nc12 | inactive: 13.4%
COc1ccc(C2=NCC(CBr)S2)cc1 (centres undefined) | inactive: 15.8%
c1nnnn1CCn1cnnn1 | inactive: 3.73%
O=P(Nc1nccs1)(c1ccccc1)c1ccccc1 | inactive: 6.1%
CC(C)C(=O)NC(Sc1ccccc1)C(Cl)(Cl)Cl (centres undefined) | inactive: -6.01%
O=C(OC1CN2CCC1CC2)c1cccc(Cl)c1 (centres undefined) | inactive: -3.51%
C(Cc1nn[nH]n1)Cc1nn[nH]n1 | inactive: 4.02%
Nc1ccc([As](=O)(O)c2ccc([N+](=O)[O-])cc2)cc1 | inactive: 1.79%

Compound | inhibition
O=[As](O)(c1ccccc1)c1ccc(O)cc1 | inactive: -11.8%
O=[N+]([O-])c1ncn(CCn2cnc([N+](=O)[O-])n2)n1 | inactive: 10.1%
CC(=O)NC(SC(=S)N(C)C)C(Cl)(Cl)Cl (centres undefined) | inactive: 1.73%
O=[N+]([O-])c1ccc(O)c(/C=N/Nc2ccc([N+](=O)[O-])cc2[N+](=O)[O-])c1 | inactive: 2.54%
C[C@H]1OP(=O)(Oc2ccccc2)[C@H](O)[C@H](O)[C@H]1N=[N+]=[N-] (some centres undefined) | inactive: 3.65%
O=P(Nc1nc2ccccc2s1)(c1ccccc1)c1ccccc1 | inactive: 12.7%
CN(C)C1(CNC(=O)c2ccc(Cl)c(S(N)(=O)=O)c2)CCCCC1 | inactive: -8.42%
O=P(Nc1ccccn1)(c1ccc(Br)cc1)c1ccc(Br)cc1 | inactive: -6.04%
CN(C)C(=O)Oc1noc2ccccc12 | inactive: -1.95%
Cc1ccccc1OP(=O)(Nc1ccccn1)Oc1ccccc1C | inactive: 4.41%
CCC(=O)N1C2C3N(C(=O)CC)C1C1N(C(=O)CC)C(C(N1C(=O)CC)N3C(=O)CC)N2C(=O)CC | inactive: 5.46%
O=C(OC1CN2CCC1CC2)c1ccccc1 (centres undefined) | inactive: 5.73%
Cc1ccc(OP(=O)(Nc2ccccn2)Oc2ccc(C)cc2)cc1 | inactive: -5.88%
CC(=O)NC(SC(=S)N(CC(C)C)CC(C)C)C(Cl)(Cl)Cl (centres undefined) | inactive: -1.4%
COC(=O)c1cc2c(s1)N=C(c1ccccc1)N(C)P2(=O)N1CCOCC1 (centres undefined) | inactive: 2.18%
CCOC(=O)NC(Sc1ccccc1)C(Cl)(Cl)Cl (centres undefined) | inactive: 3.89%
Cc1ccc(NP(=O)(Oc2cccc(C)c2)Oc2cccc(C)c2)nc1 | inactive: -9.28%
c1ccc(-c2nn[nH]n2)c(-c2nn[nH]n2)c1 | inactive: 2.68%
O=C(NC1CCS(=O)(=O)C1)NP(=S)(Oc1ccccc1)Oc1ccccc1 (centres undefined) | inactive: 4.32%
CCNC(=S)/N=C(\N)N[N+](=O)[O-] | inactive: 3.41%
